The target in one data set is MC4 receptor (Homo sapiens, UniProt P32245). In words: MC4 EC50 functional potency (protocol E of US2005/0176772 / WO 2005/077935). As to conditions: read-out: MC4 EC50. Here is the method: The compounds of formula (I) of the present invention have utility as MCR4 agonists in the treatment of various disease states.
MC5 and MC4 EC50 activity was determined as described by assay protocols D and E, respectively, in US2005/0176772 (pages 28-30).

By UniProt entry, the sequences of proteins in these tests, tags left out.
UniProt P32245, whole entry: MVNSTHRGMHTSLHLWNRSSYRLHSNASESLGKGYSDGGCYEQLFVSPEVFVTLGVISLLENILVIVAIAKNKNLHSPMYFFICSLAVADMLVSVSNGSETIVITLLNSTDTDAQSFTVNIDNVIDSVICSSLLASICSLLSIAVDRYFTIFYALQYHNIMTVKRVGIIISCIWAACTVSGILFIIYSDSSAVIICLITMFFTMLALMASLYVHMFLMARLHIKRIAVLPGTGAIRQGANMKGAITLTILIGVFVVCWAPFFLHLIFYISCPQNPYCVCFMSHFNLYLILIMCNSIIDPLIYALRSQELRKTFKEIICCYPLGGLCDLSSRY
UniProt P08684, whole entry: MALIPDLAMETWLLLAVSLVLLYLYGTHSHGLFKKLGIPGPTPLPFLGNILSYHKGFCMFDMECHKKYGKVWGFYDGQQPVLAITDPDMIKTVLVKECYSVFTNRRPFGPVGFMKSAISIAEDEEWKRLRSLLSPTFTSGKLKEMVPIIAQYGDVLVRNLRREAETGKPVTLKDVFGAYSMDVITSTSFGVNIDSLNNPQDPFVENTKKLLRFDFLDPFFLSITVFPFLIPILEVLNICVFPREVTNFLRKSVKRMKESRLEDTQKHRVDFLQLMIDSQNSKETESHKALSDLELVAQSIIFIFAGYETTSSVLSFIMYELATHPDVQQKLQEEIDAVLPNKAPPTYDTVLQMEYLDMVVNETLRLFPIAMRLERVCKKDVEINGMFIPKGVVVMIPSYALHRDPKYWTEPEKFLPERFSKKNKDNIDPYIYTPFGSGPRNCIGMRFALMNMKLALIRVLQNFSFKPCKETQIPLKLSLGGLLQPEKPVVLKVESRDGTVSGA
UniProt P41968, whole entry: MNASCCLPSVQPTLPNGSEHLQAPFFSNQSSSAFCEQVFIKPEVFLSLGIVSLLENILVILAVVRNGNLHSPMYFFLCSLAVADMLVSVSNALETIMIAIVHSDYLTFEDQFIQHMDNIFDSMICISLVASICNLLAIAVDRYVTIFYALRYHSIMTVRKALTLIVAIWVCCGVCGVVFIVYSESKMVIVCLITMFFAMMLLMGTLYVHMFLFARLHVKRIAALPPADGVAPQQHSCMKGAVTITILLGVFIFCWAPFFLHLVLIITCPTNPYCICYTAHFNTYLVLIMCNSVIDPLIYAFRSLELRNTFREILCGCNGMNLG

The next data set deals with MC4 receptor (MC4R) (Homo sapiens, UniProt P32245). Put plainly: Nle4, D-Phe7-α-MSH inhibition at the MC4 receptor (competition binding, SPA, CHO-CRE MC4R membranes). The note with it: read-out: MC4 MSH Ki. An excerpt:
Nle4, D-Phe7-α-MSH Inhibition at the MC4 Receptor
Nle4, D-Phe7-α-MSH is a stable analogue of melanocyte-stimulating hormone (MSH), which is an agonist at the MC4 receptor (MC4R). Compounds can be evaluated for their ability to inhibit Nle4, D-Phe7-α-MSH binding to membranes from cells expressing the MC4R using a competition binding assay versus [^125I] Nle4, D-Phe7-α-MSH.
Cells expressing the MC4R were subject to homogenisation and the membrane fragment isolated by differential centrifugation. CHO-CRE MC4R cell membranes were coupled to PVT-PEI-WGA SPA Beads type A for 2 hours, spun at 1000 RPM for 5 min and suspended to a concentration of 300 ug bead/ml (0.15 ug membrane, 15 ug bead per well). Bead/membrane mix was incubated with 0.06 nM [^125I] Nle4, D-Phe7-α-MSH and 11 half-log concentrations of competitor ligand, in duplicate, in a total volume of 50 μl buffer per well (25 mM HEPES, 1 mM MgCl2, 2.5 mM CaCl2, 1% Pluronic F68, 1 complete EDTA protease inhibitor tablet/50 ml pH7). Non-specific binding was determined by the inclusion of 100 nM SHU9119. The reaction was initiated by the addition of bead/membranes and plates were incubated at room temperature for 12 hours (the first hour on a plate shaker), after which the amount of radioactivity present was determined using a Wallac plate counter. Ki values were determined by data analysis using appropriate software.

The next data set deals with cytochrome P450 3A4 (Homo sapiens, UniProt P08684). As to conditions: 3 µM. As for the experimental part: High Density Drug-Drug Interactions (DDI) 3 μM Cocktail Screen
A drug interaction is a situation in which a substance affects the activity of another drug, i.e. the effects are increased or decreased, or together they produce a new effect that neither produces on its own. Drug interactions may be the result of various processes but a relatively common one is where one drug affects the pharmacokinetics of another by inhibiting the cytochrome P450 that metabolises it. Because of the importance of these phenomena, assessment of the DDI potential for new chemical entities (NCEs) is considered important early on in the drug discovery process. […]
The substrate cocktail approach for P450 DDI utilizes human liver microsomes together with isoform-specific clinical drug probes and permits the simultaneous measurement of the inhibition of P450 1A2, 2C9, 2D6 & 3A4 activities in a single incubation. […] This method has been thoroughly tested and evaluated using standard compounds.
Appearance of the metabolite of each substrate is measured over time in the presence and absence of the NCE (test compound/inhibitor) at a concentration of 3 μM. The compounds are assessed for their inhibitory potential as a percentage value and interpreted using the following scheme.

The target in the next data set is MC3 receptor (MC3R) (Homo sapiens, UniProt P41968). In words: Nle4, D-Phe7-α-MSH inhibition at the MC3 receptor (competition binding, SPA, CHO-CRE MC3R membranes). As to conditions: read-out: MC3 MSH Ki. An excerpt: Nle4, D-Phe7-α-MSH Inhibition at the MC3 Receptor
Nle4, D-Phe7-α-MSH is a stable analogue of melanocyte-stimulating hormone (MSH), which is an agonist at the MC3 receptor (MC3R). Compounds can be evaluated for their ability to inhibit Nle4, D-Phe7-α-MSH binding to membranes from cells expressing the MC3R using a competition binding assay versus [^125I] Nle4, D-Phe7-α-MSH.
Cells expressing the MC3R were subject to homogenisation and the membrane fragment isolated by differential centrifugation. CHO-CRE MC3R cell membranes were coupled to PVT-PEI-WGA SPA Beads type A for 2 hours, spun at 1000 RPM for 5 mins and suspended to a final assay concentration of 800 ug bead/ml (1.2 ug membrane, 40 ug bead per well). Bead/membrane mix was incubated with 0.06 nM [^125I] Nle4, D-Phe7-α-MSH and 11 half-log concentrations of competitor ligand, in duplicate, in a total volume of 50 μl buffer per well (25 mM HEPES, 1 mM MgCl2, 2.5 mM CaCl2, 1% Pluronic F68, 1 complete EDTA protease inhibitor tablet/50 ml pH7). Non-specific binding was determined by the inclusion of 100 nM SHU9119. The reaction was initiated by the addition of bead/membranes and plates were incubated at room temperature for 12 hours (the first hour on a plate shaker), after which the amount of radioactivity present was determined using a Wallac plate counter. Ki values were determined by data analysis using appropriate software.

As usually defined, the EC50 is the midpoint of the concentration-response curve. By Ki is commonly meant the equilibrium dissociation constant of an inhibitor or competing ligand from its target. A word on the inhibition: it is the change of the read-out against control, counted positive when it falls. On to `CS(=O)(=O)N1CCN(C(=O)[C@@H]2CN(c3ccccn3)C[C@H]2c2ccc(F)cc2F)CCC1c1ccccc1` (stereo partly shown), for which, on MC4 receptor, the EC50 was 0.122 µM. Also, the Ki was 1.39 µM at MC4 receptor (MC4R) and 5.37 µM at MC3 receptor (MC3R). For the same molecule, the inhibition against cytochrome P450 3A4 came to 41%.

These data come from patent publication US8592403B2, “Diazepine and diazocane compounds as MC4 agonists” (Pfizer Limited, priority 2008, dated 2013).
